Screening results as filed in PubChem BioAssay.
GIV Gai3 FP: inhibitors of GIV GBA-motif binding to rat Galpha-i3; P08753; Galpha-i3/FITC-GIV peptide fluorescence polarization, 90 min; stronger effect = lower value; scaled: aluminum fluoride 0%, vehicle 100%; percent of control (FP), % (test concentration not listed); 210,000 tested, 0.42% active; AID 1224905;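 active = replicate mean at 85% of control or lower, very high polarization wells dropped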;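 note: wells of about 15 µL received 100 nL stock; the first replicate is given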
HCMV NEC inh: inhibitors of HCMV UL50-UL53 nuclear egress complex interaction; 190,000 compounds, 0.15% hits; inhibition, % (test concentration not listed); HTRF UL50-UL53 interaction, normalized percent inhibition; in the data active = inhibition above about 27%, passing the limit was not always enough
GIV Gai FP conf: confirmation of inhibitors of GIV binding to rat Galpha-i3; shares compounds with GIV Gai3 FP; FITC-GIV peptide binding to Galphai3, fluorescence polarization; stronger effect = lower value; fluorescence polarization, mP at 100 µM; 580 compounds, 38% hits; AID 1259350;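 active = inhibition score of 15 or more, meaning 100 minus mean polarization as percent of control over three replicates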
GIV-Gai AS conf: GIV-Galpha-i3 inhibition, AlphaScreen confirmation; 580 compounds, 39% hits; AlphaScreen counts at 100 µM; AlphaScreen Galphai3-GIV binding, purified proteins, 90 min; stronger effect = lower value; shares compounds with GIV Gai3 FP;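 active = inhibition score at or above a set limit, where the score is 100 minus the three-replicate mean percent of control signal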
Active calls of the source: *; x = no result given. In the library only some 0.46% were active in any assay of this set; here they are far more common.

SMILES	GIV Gai3 FP	HCMV NEC inh	GIV Gai FP conf	GIV-Gai AS conf
Cc1ccc(C)n1-c1sccc1C(=O)O	27*	28	55	3223*
Cc1ccc(C)n1-c1cccc(C(=O)O)c1	x	21	x	x
CCOCCn1cnc2sc(C(=O)NC3CCCC(C)C3C)c(C)c2c1=O (stereo not drawn)	111	x	x	x
CCN1C(C)=C(C)S/C1=C1\SC(=S)N(NC(C)=O)C1=O	106	x	x	x
CCN1C(C)=C(C)S/C1=C1\SC(=S)N(C2CCCCC2)C1=O	94	-24	73	44037
O=C1OC(C2OC(=O)c3ccccc32)c2ccccc21 (stereo not drawn)	x	-8	x	x
COc1ccc(OC)c(C2=NS(=O)(=O)N(C)C(C(=O)Nc3ccc(F)cc3F)=C2)c1	95	-21	80	32539
Cc1ccc(C2=NS(=O)(=O)N(C)C(C(=O)Nc3ccc(F)cc3F)=C2)cc1	106	-34	x	x
COc1cc(/C=C2\C(=O)N(c3ccc(S(N)(=O)=O)cc3)N=C2C)ccc1OCc1ccccc1	100	x	x	x
COc1cc(/C=C2/C(=O)N(c3ccccc3)N=C2C)ccc1OS(=O)(=O)c1ccccc1	81*	42*	60*	21149*
Cc1sc(-c2ccno2)cc1S(=O)(=O)NC1CCCCC1	104	-28	x	x
Cc1sc2nc(-c3cccs3)oc(=O)c2c1C	x	0	x	x
Cc1sc2nc(/C=C/c3ccco3)oc(=O)c2c1C	79*	-9	60	46890
CC1(C)CC(=O)C2=C(C1)c1c(ccc3ccccc13)NC2c1cc(Br)c(O)c(Br)c1 (stereo not drawn)	112	x	x	x
COC(=O)CSc1nnc(-c2ccccc2)n1C	100	10	x	x
Cc1ccc(C)c(CSc2nnc(-c3sc4ncccc4c3N)n2C)c1	103	-7	x	x
CCc1ccc(C(=O)NC(Cc2c[nH]c3ccccc23)C(=O)OCC(=O)c2ccc(OC)cc2)cc1 (stereo not drawn)	104	x	x	x
CCc1ccc(C(=O)NC(Cc2c[nH]c3ccccc23)C(=O)OCC(=O)c2ccccc2)cc1 (stereo not drawn)	85*	x	61	46081
CCC(=O)Nc1cccc(-c2nc3ccccc3o2)c1	x	-7	x	x
O=C(Nc1cccc(-c2nc3ccccc3o2)c1)C(F)(F)F	70*	-56	75	32747
N#CCN(c1ccc2c(c1)OCCO2)S(=O)(=O)c1ccc2nncn2c1	98	x	x	x
COc1ccc2c(c1)c(/C=C/c1nc3ccccc3c(=O)n1-c1cccc(C)c1)c(C)n2C	66*	-10	72	43303
COc1ccc2c(c1)c(/C=C/c1nc3ccccc3c(=O)n1-c1ccccc1)c(C)n2C	107	-3	x	x
C=CCn1c(CN2CCOCC2)nc2ccccc21	103	-7	x	x

Shown as a markdown table: entries from further up
| Compound | GIV Gai3 FP | HCMV NEC inh | GIV Gai FP conf | GIV-Gai AS conf |
| --- | --- | --- | --- | --- |
| Cc1ccc(C)c(CSc2nnc(-c3sc4ncccc4c3N)n2C)c1 | 103 | -7 | x | x |
| CCc1ccc(C(=O)NC(Cc2c[nH]c3ccccc23)C(=O)OCC(=O)c2ccc(OC)cc2)cc1 (stereo not drawn) | 104 | x | x | x |
| CCc1ccc(C(=O)NC(Cc2c[nH]c3ccccc23)C(=O)OCC(=O)c2ccccc2)cc1 (stereo not drawn) | 85* | x | 61 | 46081 |
